## Ab-14 light chain CDR variants: yeast mating affinities

Data: MIT Lincoln Laboratory AlphaSeq set, Li et al. 2023, doi:10.1038/s41467-023-39022-2, as distributed in FLAb.

Binding partner: SARS-CoV-2 spike HR2 peptide, sequence PDVDLGDISGINAS.

Each scFv is VH, three GGGGS repeats, VL, as in the parent Ab-14, and differs from it in the CDRs of the light chain only.
VH: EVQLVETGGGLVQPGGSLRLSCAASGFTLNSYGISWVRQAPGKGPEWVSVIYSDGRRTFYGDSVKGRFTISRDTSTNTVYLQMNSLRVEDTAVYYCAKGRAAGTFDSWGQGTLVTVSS
VL: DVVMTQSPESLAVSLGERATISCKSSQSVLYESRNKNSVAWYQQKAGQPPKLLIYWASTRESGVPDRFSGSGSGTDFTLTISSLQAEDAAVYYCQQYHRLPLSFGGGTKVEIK

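The variants were designed computationally from a first round of random CDR variants and then made and measured. Group labels follow the data file (Ctrl: baseline library sampled from a position-specific scoring matrix, with some repeated check sequences; Rand: our label for a block that the file lists under HC and that is probably the random mutants of the ten best first-round binders; GP: Gaussian process model; GPLM: also part of the Gaussian process libraries; HC: hill climbing; Gen: genetic algorithm; Gibbs: Gibbs sampling; a sequence that several methods proposed may carry one label only). Affinity was read by AlphaSeq, a pooled yeast mating assay with surface-displayed partners. Mating (16 h, 30 °C) was followed by selection of diploids and sequencing of their barcodes. Scores were corrected for input abundance and mapped to Kd with protein pairs of known affinity run in the same pool. The assay was run in six technical replicates.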

Substitutions are numbered in sequence along the VL above, starting at 1 (not Kabat). Variants here have at most six changes. Values are log10 of the apparent Kd in nM; lower means stronger binding. An entry "nd" has no value in the source: the pair was not observed among the diploids in that replicate. This suggests poor binding but is not conclusive.

The variant S25L W56N S62R [GP_Gen] gave 0.13, -0.11, -0.36, -0.28, -0.46, -0.11. The variant K24S S25L S26M W56H S62D [GP_HC] gave 0.17, -0.08, -0.11, -0.04, -0.24, 0.04. For V29W R34L [Ctrl], the assay gave nd, nd, nd, nd, nd, nd. The variant Y31T S58M L100Y [Ctrl] showed nd, nd, nd, nd, nd, nd. For S26K R34L W56E T59C H98F [Ctrl], the assay gave 1.08, 1.13, 1.07, 0.70, 0.78, 1.01. For S25L V29C W56N Q96D [GP_Gen], the assay gave -0.09, -0.24, -0.01, 0.03, -0.26, -0.06. For S25V V29Y W56N S62Q [GP_Gen], the assay gave 0.13, -0.25, -0.25, -0.47, -0.30, -0.16. The variant S25L S26P W56N S62Q [GP_Gen] showed 0.13, -0.10, 0.18, -0.21, -0.15, 0.18. For S25L V29F W56E E61C [GP_Gen], the assay gave 0.11, 0.18, 0.12, -0.09, 0.14, 0.26.

The variant E61M Q95S [Ctrl] gave nd, nd, nd, nd, nd, nd. The variant S26R E32G [Ctrl] gave 0.71, 0.87, 0.56, 1.16, 0.92, 1.21. The variant W56E [Ctrl+GPLM_HC] gave 0.25, 0.55, 0.25, 0.35, 0.30, 0.44; 0.23, 0.00, 0.30, -0.07, 0.01, 0.48. The variant S25Y S28L Y31E W56N S62E [GP_Gibbs] gave 0.21, 0.47, -0.24, 0.54, 0.80, 0.24. For V29W W56G T59S [Rand], the assay gave 0.16, -0.13, -0.33, -0.37, 0.13, 0.05. The variant S25L S28G V29W W56N S62D [GP_HC] gave -0.23, -0.52, -0.46, -0.77, -0.59, -0.20. For Q27P Y31L R99H [Ctrl], the assay gave nd, nd, nd, nd, nd, nd. The variant S25F S26L Q27P V29W W56H S62Q [GP_HC] gave 0.02, 0.18, 0.05, -0.04, 0.07, 0.12. For L30H Y97P S103M [Ctrl], the assay gave nd, 2.15, nd, nd, nd, 1.63.

For K24V S25L V29E W56N [GP_Gen], the assay gave -0.15, 0.11, -0.22, -0.16, -0.11, 0.12. For S25L S38A W56N S62Q [GP_Gen], the assay gave -0.02, -0.23, -0.02, -0.13, -0.02, -0.05. The variant Y31M W56D [GP_HC] gave 0.13, -0.23, -0.32, -0.23, -0.31, 0.07. With S25L Q27N E32Q W56N E61Y [GP_Gibbs] the result was -0.19, -0.30, -0.42, -0.48, -0.35, -0.28. With S25L S26Q K36C W56N E61L [GP_Gen] the result was 0.49, 0.70, 0.62, 0.57, 0.58, 0.81. The variant V29Y R34F W56G E61N [Ctrl] showed nd, 1.27, 1.75, nd, nd, nd. The variant S25Y S28N [Ctrl] showed 1.47, 2.04, 1.80, 3.06, 1.93, 1.81. With K24Q L30Q R34M T59W R99C [Ctrl] the result was nd, nd, nd, nd, nd, nd. For S25L S26Q V29H W56S [GP_Gen], the assay gave 0.26, 0.14, -0.22, -0.06, -0.01, 0.28.

For S25L Q27M N35V W56E S58V T59Q [GP_Gibbs], the assay gave -0.42, -0.28, -0.37, -0.32, -0.43, -0.07. For Y31D Q96R [Ctrl], the assay gave nd, nd, nd, nd, nd, 2.97. The variant K24I S25I L100N [Ctrl] gave 1.39, 1.23, 1.15, 1.75, 1.91, 1.61.

From the list, the first 4 with no signal in any replicate:

changes,group,"log10 Kd, replicates"
V29W R34L,Ctrl,"nd, nd, nd, nd, nd, nd"
Y31T S58M L100Y,Ctrl,"nd, nd, nd, nd, nd, nd"
E61M Q95S,Ctrl,"nd, nd, nd, nd, nd, nd"
Q27P Y31L R99H,Ctrl,"nd, nd, nd, nd, nd, nd"

A sequence measured in both rounds can read differently, since the two assays cover different ranges. The authors' rule: three or more of the six replicates give a measured affinity, fewer mean a poor binder. A sequence that the file lists under several names has all its replicates listed entry by entry, parted by semicolons. Of ten entries with the parent sequence, four were seen in most replicates (averages 0.34 to 2.37), three in one and three in none, so single entries are noisy. Empty control strains, which show no peptide, gave a signal in 4% of pairings with all light chain designs; the median was 2.64 and 95% of these signals were weaker than 1.59. No background was subtracted.